From patent publication US20060286112A1

Tests used:
[1] = molecular target: biotinylated I domain-GST (human) (UniProt P56199); test: competition: I domain-btn binding to immobilized collagen IV, streptavidin-HRP
[2] = substrate: I domain-GST, recombinant GST fusion protein containing amino acids 127-340 of the human VLA-1 α1 subunit (human) (UniProt P56199); test: SPR, mAb captured on anti-human IgG, I domain-GST in solution, 1 mM Mg2+
[3] = substrate: I domain-GST, recombinant GST fusion protein containing amino acids 127-340 of the human VLA-1 α1 subunit (human) (UniProt P56199); test: competition: I domain-GST binding to immobilized collagen IV, anti-GST-HRP

B1: 7.7 (antibody, V domains shown)
VH: QVQLVQSGAEVKKPGASVKVSCKASGYTFTGYFMHWVRQAPGQGLEWMGWINPNSGGTNYAQKFQGRVTMTRDTSISTAYMELSRLRSDDTAVYYCARSVLRYFDWLLWWGQGTLVTVSS
VL: DIVMTQSPESLAVSLGERTTINCKSSQSVLFSSNNENHLAWYQQKPGQPPKLLIYWASTRESGVPDRFSGSGSGTDFTLTISSLQAEDVAVYYCQQYYITPCSFGQGTKLEIK
How did the IC50 [1] turn out when B1 was run?
Its IC50 is 7 nM.

And the Kd [2]?
Its Kd is 0.116 nM.

What about the koff [2] of the same binder?
The koff was 3.67e-05 s⁻¹.

What about the kon [2] of the same binder?
The kon was 316000 M⁻¹ s⁻¹.

And the IC50 [3]?
Its IC50 is 9.9 nM.
